Results on 34 compounds are retold here after PubChem BioAssay (NCI).

Values joined by “and” are separate entries in the source; they are usually repeats but may differ in a detail not shown here. Identical values can stand only once. The entries are a selection whose mix differs from that of the whole data set.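 Interpretation: 100, growth as untreated; towards 0, rising growth inhibition; 0, no net growth; 0 to -100, cell death. Compounds scoring below 10 were considered active.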 Active and inactive are the calls of the source.

The test system of the assay is MDA-MB-468 breast. Description: NCI-60 one-dose screen, 48 h (100 = growth as untreated, 0 = no growth, -100 = all killed). As to conditions: 10 µM unless noted.
For `CC(=O)Nc1ccc([As](=O)(O)O)cc1`, the growth is inactive: 106%. In the case of `O=C(Nc1ccc([N+](=O)[O-])cc1)N(CCBr)CCBr` it was inactive: 103%. As for `O=C(O)/C=C\c1cccc(N(CCCl)CCCl)c1`, the growth is inactive: 104%. Next, `CC1CN1P(=O)(Nc1ncccn1)N1CC1C` (centres undefined): inactive: 106%; `O=[N+]([O-])c1ccc(SSc2ccc([N+](=O)[O-])cc2[N+](=O)[O-])c([N+](=O)[O-])c1`: inactive: 109%. Regarding `O=[N+]([O-])N=C1NCCN1`, the growth was inactive: 98.3% and inactive: 100%. In the case of `CC(Cl)CN(CC(C)Cl)C(=O)c1ccccc1` (centres undefined) it was inactive: 103%; in that of `ClP1(Cl)=NP(Cl)(Cl)=NP(Cl)(Cl)=N1`, inactive: 109%. In the case of `ClC(Cl)(Cl)C1SCCS1` it was inactive: 121%; in that of `CCN(CC)CCOC(=O)C(O)(c1cccc(OC)c1OC)c1cccc(OC)c1OC`, inactive: 107%.

Consider `CCCCCCCCCCNP(=S)(Cl)Cl`, for which the growth was inactive: 109%.

Turning to `O=[As](O)(c1cccc(O)c1)c1cccc(O)c1`, the growth is inactive: 97.7%.

Regarding `CCN(CCCl)Cc1cccc2ccccc12`, the growth was inactive: 104%.

For `O=[As](O)(c1cccs1)c1cccs1`, the growth was inactive: 95.8%. For `C[As](=O)(O)c1cccc(C(=O)O)c1`, the growth was inactive: 97.1%.

Turning to `CC1(C)NC(C)(C)C(Br)C(=O)C1Br` (centres undefined), the growth was inactive: 110%. As for `CCN(CCCl)CC1COc2ccccc2O1` (centres undefined), the growth was inactive: 107%.

With `CCOP(=O)(Nc1ccc(C)cn1)OCC`, the growth was inactive: 84.8%. In the case of `C=NNc1ccc([N+](=O)[O-])cc1[N+](=O)[O-]` it was inactive: 84.3%. Next, `COC(=O)C1=C(C)O[P@](=O)(OC)CCC1c1ccccc1` (some centres undefined): inactive: 98.8%. In the case of `ClCCNCc1ccccc1` it was inactive: 105%; in that of `CC[C@H](C)[C@@H]1NC(=O)/C(=C(\C)O)C1=O`, inactive: 107%; in that of `CCN(CC)C(=O)Oc1ccc(/C=N/NC(N)=S)nc1`, inactive: 86.5%. On to `NC(=O)Nc1ccc([As](=O)(O)O)cc1`, for which the growth is inactive: 109%. In the case of `O=C(CBr)c1ccc([N+](=O)[O-])cc1` it was inactive: 110%; in that of `CCN(CCI)Cc1cccc2ccccc12`, inactive: 105%; in that of `CCN(CC)[P+](c1ccc(OC)cc1OC)(N(CC)CC)N(CC)CC`, active: -14.5%. In the case of `CC(C)(NCCCl)C(O)c1ccccc1` (centres undefined) it was inactive: 84.2%; in that of `CCOP(=S)(OCC)OCC`, inactive: 116%. Next, `NCCNCCCl`: inactive: 102%; `ClCCN(Cc1ccc(Cl)cc1)Cc1ccc(Cl)cc1`: inactive: 63.2%.

As for `CCCCCCC(C)OP(O)OC(C)CCCCCC` (centres undefined), the growth was inactive: 97.1%.

Turning to `CCOC(=O)Nc1cccc([As](=O)(O)O)c1`, the growth was inactive: 95.1%. Regarding `O=[N+]([O-])c1cccc(Oc2ccc([N+](=O)[O-])cc2[N+](=O)[O-])c1`, the growth was active: -33.4%.
